From PubChem BioAssay AID1063 (University of Pittsburgh Molecular Library Screening Center, 2008) come the findings set out here.

This is a selection; strong and weak results do not stand in their true shares. Some of these compounds have results that are not shown, active ones among them. Activity calls are given as the source filed them. Cut-off read from the data, not from the text of the source: active = inhibition above about 50%; inactive = the rest.

This assay is described as follows: Leishmania major promastigote growth inhibition, primary screen (AID 1063).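 Note: promastigotes grown with compound for 44 hours at 28 °C.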 The conditions noted are these: Leishmania major promastigotes, resazurin fluorescence viability; at 10 µM; stronger effect = higher value. A general note: The colour change of resazurin is a common sign of viable cells or microbes.
As usually defined, the inhibition is the drop in the measured response relative to a control, in per cent. As for `CN(C)C1CCCC1OC(=O)C(O)(c1ccccc1)c1ccccc1` (centres undefined), the inhibition is inactive: -5.45%. As for `Cc1ccccc1C(=O)NCC1(N2CCCCC2)CCCCC1`, the inhibition was inactive: 3.66%. For `C=CCN1CCN(CCOC(=O)C(O)(c2ccccc2)c2ccccc2)CC1`, the inhibition is inactive: -3.84%.

Turning to `CCN1CCCC(OC(=O)C2(O)c3ccccc3C=Cc3ccccc32)C1` (centres undefined), the inhibition is inactive: 7.62%.

On to `O=C(NCC1(N2CCCCC2)CCCCC1)c1cc([N+](=O)[O-])ccc1Cl`, for which the inhibition was inactive: 22.3%. For `CC(C)N1C(=O)CC2(CCN(CCOC(=O)C(O)(c3ccccc3)c3ccccc3)CC2)C1=O`, the inhibition was inactive: -4.79%. On to `O=C(OC1CN2CCC1CC2)C(CO)(c1ccccc1)c1ccccc1` (centres undefined), for which the inhibition was inactive: 3.7%.

With `CN(C)c1cccc(C(=O)NCC2(N(C)C)CCCCC2)c1`, the inhibition was inactive: -0.31%. As to `COc1cccc(C(=O)NCC2(N3CCCCC3)CCCCC2)c1`, the inhibition is inactive: -0.43%.
